Measurements: PubChem BioAssay AID651580 (Sanford-Burnham Center for Chemical Genomics, 2012)
The entries are a selection whose mix differs from that of the whole data set. The source made the active and inactive calls.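 How the source made its calls: active means mean inhibition across four replicates of at least 40 percent at the single tested concentration; inactive means the rest.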

Assay: HIF-2a reporter inhibitor retest, confirmation, luminescence, 786-0 RCC cells (AID 651580)
Details: HIF-2a luciferase reporter luminescence, overnight, at 18.8 µM, stronger effect = higher value

Which inhibition does the source give for `CN(C)C(=O)c1cc([N+](=O)[O-])cc2c1-c1c(cc([N+](=O)[O-])cc1[N+](=O)[O-])C2=O` here?
The inhibition was inactive: -4.27%.
